Our source for the activity change and Potency values is PubChem BioAssay (Tox21).

Protein sequences, listed by entry. Tags and fused reporters are not part of them.
UniProt P30968, whole entry: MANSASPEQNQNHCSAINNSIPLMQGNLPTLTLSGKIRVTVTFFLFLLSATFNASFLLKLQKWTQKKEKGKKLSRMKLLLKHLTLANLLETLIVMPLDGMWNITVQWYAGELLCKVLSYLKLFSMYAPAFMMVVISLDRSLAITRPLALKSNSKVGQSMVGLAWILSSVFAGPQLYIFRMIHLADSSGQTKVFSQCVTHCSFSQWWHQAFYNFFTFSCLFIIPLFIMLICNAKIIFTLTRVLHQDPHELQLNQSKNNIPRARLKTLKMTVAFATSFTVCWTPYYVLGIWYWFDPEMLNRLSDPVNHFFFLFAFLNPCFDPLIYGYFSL

“And” between values parts separate entries of the source, which are not always exact repeats. Equal values may be shown once. This is a selection; strong and weak results do not stand in their true shares. Records with an inconclusive call do not appear. The source made the active and inactive calls. Unless noted, calls follow the shape of the full dose curve.

Test [1] concerns the target Gonadotropin-releasing hormone receptor (Homo sapiens) (UniProt P30968). Nature of the test: Human gonadotropin-releasing hormone receptor (GnRHR) small molecule agonists, calcium flux assay in GnRHR-HEK293 cells (AID 1920063). Also: % is scaled to controls: 0 for no effect and ±100 for the full control effect; nearly all actives have a fitted effect of over 35% in size. The note with it: calcium flux fluorescence, agonist mode, hits give high values; at 57.6 µM (top of the series). The essentials:
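Calcium flux, agonist mode, human GnRHR stably integrated in HEK293; dye 1 h at 37 C before compound; Ex/Em=480/540 kinetic read, 3 min; 15 concentrations, triplicate.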

Test [2] in a line: Nuclear factor erythroid 2-related factor 2/antioxidant responsive element (Nrf2/ARE) small molecule agonists: qHTS cell viability counter screen in human keratinocytes (AID 1919968; active = well fitted cell-killing curve with a large enough effect in the repeat runs; also: potency is read from the fitted curve at half-maximal effect; nearly all actives have a fitted effect of over 55% in size). To be noted: KeratinoSens HaCaT ARE cells viability, CellTiter-Fluor, 24 h. The source says:
(§1) U.S. Tox21 Program National Center for Advancing Translational Sciences [NCATS] Division of Preclinical Innovation [DPI] U.S. Environmental Protection Agency [EPA] National Institutes of Environmental Health Sciences [NIEHS] National Toxicology Program [NTP] U.S. Food and Drug Administration [FDA] Tox21 Assay Overview: Oxidative stress has been implicated in the pathogenesis of a variety of diseases ranging from cancer to neurodegeneration. The antioxidant response element (ARE) signaling pathway plays an important role in the amelioration of oxidative stress. The KeratinoSens (Givaudan, Switzerland) is an in vitro test method which quantifies luciferase induction as a measure of activation of Keap1-Nrf2-antioxidationt/electrophile response element (ARE) dependant pathway in HaCaT human keratinocytes stably transfected with a selectable plasmid. […] The activation of the report gene under culture conditions can be detected by ONE-Glo Luciferase Assay System (Promega, Madison, WI). […]
Tox21 Assay Protocol Summary: HaCaT derived cell line KeratinoSens were dispensed at 1,500 cells/5uL/well in 1536-well white wall/solid bottom plates using a Multidrop Combi (ThermoFisher Scientific, Waltham, MA) dispenser. […] After 1 h incubation at 37 C/5% CO2 the fluorescence intensity was measured using a ViewLux (PerkinElmer, Shelton, CT) plate reader.

A short description of test [3]: Nuclear factor erythroid 2-related factor 2/antioxidant responsive element (Nrf2/ARE) small molecule agonists: luciferase reporter gene qHTS assay in human keratinocytes (AID 1919969). Also: potency is read from the fitted curve at half-maximal effect; nearly all actives have a fitted effect of over 35% in size. To be noted: KeratinoSens HaCaT ARE-luciferase, luminescence, 24 h.
Source text: National Center for Advancing Translational Sciences [NCATS]
Division of Preclinical Innovation [DPI]
U.S. Environmental Protection Agency [EPA]
National Institutes of Environmental Health Sciences [NIEHS]
National Toxicology Program [NTP]
U.S. Food and Drug Administration [FDA]
as §1, with “Oxidative” for “U.S. Tox21 Program National Center for Advancing Translational Sciences [NCATS] Division of Preclinical Innovation [DPI] U.S. Environmental Protection Agency [EPA] National Institutes of Environmental Health Sciences [NIEHS] National Toxicology Program [NTP] U.S. Food and Drug Administration [FDA] Tox21 Assay Overview: Oxidative”
HaCaT derived cell line KeratinoSens were dispensed at 1,500 cells/5uL/well in 1536-well white wall/solid bottom plates using a Multidrop Combi (ThermoFisher Scientific, Waltham, MA) dispenser. […] The plates were incubated at 37 C/5% CO2 for 23 h, followed by addition of 1uL/well of CellTiter-Fluor reagent into the assay plates using a Flying Reagent Dispenser (Aurora Discovery, San Diego, CA) for cell viability readout that measures cytotoxicity. […]

With `CCC(=O)N(c1ccccc1)C1(COC)CCN(CCn2nnn(CC)c2=O)CC1`, the activity change in test [1] is inactive: -2.54%.

For `CN(CCCl)CCCl`, the Potency was active: 43.2 µM in test [2]; active: 24.3 µM and active: 29.8 µM in test [3].
